By Ki is commonly meant the dissociation constant of the complex between target and ligand, obtained from inhibition or displacement.

Chains of the proteins cited; added tags and fusions are not shown. Lines headed by an entry give the natural chain unless they say otherwise; changes in a name come on top.
UniProt O43570: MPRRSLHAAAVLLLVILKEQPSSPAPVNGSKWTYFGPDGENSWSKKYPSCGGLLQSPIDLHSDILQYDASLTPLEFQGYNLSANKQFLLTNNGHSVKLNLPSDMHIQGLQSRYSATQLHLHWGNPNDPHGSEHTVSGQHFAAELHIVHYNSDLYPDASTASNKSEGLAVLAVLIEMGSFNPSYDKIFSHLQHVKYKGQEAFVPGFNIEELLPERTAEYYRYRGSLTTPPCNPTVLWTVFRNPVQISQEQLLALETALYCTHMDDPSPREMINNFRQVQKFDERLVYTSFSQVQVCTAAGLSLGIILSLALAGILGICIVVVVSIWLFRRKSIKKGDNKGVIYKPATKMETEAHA

We go through one compound from BindingDB's records for doi:10.1111/j.1747-0285.2009.00857.x (Istituto Di Biostrutture E Bioimmagini-Cnr, 2009).

For this experiment, the target named is Carbonic anhydrase 12 (Homo sapiens, UniProt O43570). As to the kind of experiment: Inhibition Assay. The settings on record: pH 7.5; 20 °C.

Each structure is given as a SMILES string.

`NS(=O)(=O)c1ccc(N2CCCCS2(=O)=O)cc1` [Ospolot] gave an inhibition constant Ki of 56 nM.
